Where two headings read alike, the source gives them in different places.
Biological target: T1, CCL17 (Homo sapiens, UniProt Q92583)
T1 sequence (Q92583 24-94): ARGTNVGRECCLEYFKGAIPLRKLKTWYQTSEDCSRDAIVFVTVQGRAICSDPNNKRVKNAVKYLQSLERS
Assay: Interaction affinity with CCL17 by fluorescence extinction of tryptophan residues
Assay type: binding
Conditions: CCL17 1.5 μm, 20° C., biphasic titration curve
Procedure: Briefly: the fluorescence measurements are carried out on a spectrofluorimeter Fluorolog 3 (JobinYvon/Spex) in a quartz cuvette. […] The measurements are carried out at 20° C. and the solutions are stirred using a magnetic stir bar. The recorded emission spectra are corrected by subtraction of the emission spectrum of the compound to be tested alone.

In the case of `CC(C)=CCn1cnc2c1c(=O)n(C)c(=O)n2C` [GPN279, 3,7-dihydro-1,3-dimethyl-7-(3-methyl-2-butenyl)-1H-purin-2,6-dione], the Kd (read-out: KD for the site of high affinity) is reported as < 0.05 µM and the Kd (read-out: KD for the site(s) of low affinity) is reported as 57 µM.

— patent US10828309B2, “Dermocosmetic or pharmaceutical use of a composition comprising at least one inhibitor of some chemoattractant cytokines” (GREENPHARMA, priority 2014, dated 2020)
